The target of assay [1] is human 5-HT2A receptor (Homo sapiens (Human), UniProt P28223). Kind of assay: Radioligand binding assay, [3H]-ketanserin, human 5-HT2A receptor. The following applies: membranes of HEK293 EBNA cells expressing human 5-HT2A; 1.1 nM [3H]-ketanserin. As to the method: (§1) HEK293 EBNA cells were transiently transfected with expression plasmids encoding for the human D2 or D3 or for the human 5-HT2A receptor, respectively. The cells were harvested 48 h post-transfection, washed three times with cold PBS and stored at −80° C. prior to use. The pellet was suspended in cold 50 mM Tris-HCl buffer comprising 10 mM EDTA (pH 7.4) and was homogenized with a Polytron (Kinematica AG, Basel, Switzerland) for 20-30 sec at 12.000 rpm. After centrifugation at 48.000×g for 30 min at 4° C., the pellet was resuspended in cold 10 mM Tris-HCl buffer comprising 0.1 mM EDTA (pH 7.4), homogenized, and centrifuged as above. […] The protein content of this homogenate was determined with the Bio-Rad (Bradford) Protein Assay (Biorad Laboratories GmbH, München, Germany) according to the instructions of the manufacturer using gamma globulin as the standard. […]
(§2) The binding affinity (Ki) of the compounds was determined using radioligand binding. […] The nonspecific binding was determined with equally composed reaction mixtures in the presence of 10 μM unlabelled spiperone. Per well 45 μl of Microscint 40 (Perkin Elmer, Schwerzenbach, Switzerland) was added, plates for sealed, shaken for 20 min and counted for 3 min on a Topcount Microplate Scintillation Counter (Can berra Packard SA, Zürich, Switzerland) with quenching correction. […]

Sequences of proteins named here, by UniProt entry; tags and fusion partners are left off.
UniProt P28223, whole entry: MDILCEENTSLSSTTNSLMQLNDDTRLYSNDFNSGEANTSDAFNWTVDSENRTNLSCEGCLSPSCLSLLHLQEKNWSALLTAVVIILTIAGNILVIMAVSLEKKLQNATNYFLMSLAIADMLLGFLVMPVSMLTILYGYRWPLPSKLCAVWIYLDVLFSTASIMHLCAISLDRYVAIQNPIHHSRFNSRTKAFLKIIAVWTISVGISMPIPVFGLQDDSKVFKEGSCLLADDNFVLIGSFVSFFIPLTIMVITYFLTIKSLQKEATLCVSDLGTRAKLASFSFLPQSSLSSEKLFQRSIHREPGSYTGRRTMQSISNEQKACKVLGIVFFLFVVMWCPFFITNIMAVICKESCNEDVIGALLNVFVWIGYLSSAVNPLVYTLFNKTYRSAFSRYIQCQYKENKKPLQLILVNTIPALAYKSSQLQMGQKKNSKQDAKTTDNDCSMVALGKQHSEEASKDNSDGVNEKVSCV
UniProt P14416, whole entry: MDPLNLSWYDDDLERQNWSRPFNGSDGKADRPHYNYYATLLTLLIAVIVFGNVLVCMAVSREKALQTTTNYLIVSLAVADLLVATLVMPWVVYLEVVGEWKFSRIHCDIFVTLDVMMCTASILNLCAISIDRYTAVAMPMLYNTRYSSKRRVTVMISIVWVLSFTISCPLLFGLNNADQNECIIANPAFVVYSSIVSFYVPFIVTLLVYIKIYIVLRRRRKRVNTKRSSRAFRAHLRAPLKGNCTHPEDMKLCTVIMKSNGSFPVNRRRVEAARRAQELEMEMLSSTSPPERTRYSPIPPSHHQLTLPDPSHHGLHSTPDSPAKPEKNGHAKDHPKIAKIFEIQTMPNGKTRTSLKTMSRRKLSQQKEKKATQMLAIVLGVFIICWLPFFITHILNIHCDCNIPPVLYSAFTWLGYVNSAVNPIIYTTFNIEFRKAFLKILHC
UniProt P35462, whole entry: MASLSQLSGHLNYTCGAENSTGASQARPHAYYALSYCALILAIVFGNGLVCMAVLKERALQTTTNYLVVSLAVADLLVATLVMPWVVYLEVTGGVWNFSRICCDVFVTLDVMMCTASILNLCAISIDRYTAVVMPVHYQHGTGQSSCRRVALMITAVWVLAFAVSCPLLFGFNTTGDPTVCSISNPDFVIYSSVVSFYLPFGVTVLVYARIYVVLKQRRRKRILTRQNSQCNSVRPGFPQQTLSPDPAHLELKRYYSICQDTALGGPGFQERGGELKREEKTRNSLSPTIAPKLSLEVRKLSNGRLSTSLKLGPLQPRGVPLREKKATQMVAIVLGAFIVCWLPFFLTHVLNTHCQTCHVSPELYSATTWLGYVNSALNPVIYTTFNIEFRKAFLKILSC

The target in assay [2] is human D2 receptor (Homo sapiens (Human), UniProt P14416). Kind of assay: Radioligand binding assay, [3H]-spiperone, human D2 receptor. Conditions: membranes of HEK293 EBNA cells expressing human D2; 0.7 nM [3H]-spiperone. As to the method:
HEK293 EBNA cells were transiently transfected with expression plasmids encoding for the human D2 or D3 or for the human 5-HT2A receptor, respectively. The cells were harvested 48 h post-transfection, washed three times with cold PBS and stored at −80° C. prior to use. The pellet was suspended in cold 50 mM Tris-HCl buffer comprising 10 mM EDTA (pH 7.4) and was homogenized with a Polytron (Kinematica AG, Basel, Switzerland) for 20-30 sec at 12.000 rpm. After centrifugation at 48.000×g for 30 min at 4° C., the pellet was resuspended in cold 10 mM Tris-HCl buffer comprising 0.1 mM EDTA (pH 7.4), homogenized, and centrifuged as above. This pellet was further resuspended in a smaller volume of ice cold 10 mM Tris-HCl buffer comprising 0.1 mM EDTA (pH 7.4) and homogenized with a Polytron for 20-30 sec at 12.000 rpm. The protein content of this homogenate was determined with the Bio-Rad (Bradford) Protein Assay (Biorad Laboratories GmbH, München, Germany) according to the instructions of the manufacturer using gamma globulin as the standard. This homogenate was stored at −80° C. in aliquots and thawed immediately prior to use. […]
The binding affinity (Ki) of the compounds was determined using radioligand binding. […] The nonspecific binding was determined with equally composed reaction mixtures in the presence of 10 μM unlabelled spiperone. Per well 45 μl of Microscint 40 (Perkin Elmer, Schwerzenbach, Switzerland) was added, plates for sealed, shaken for 20 min and counted for 3 min on a Topcount Microplate Scintillation Counter (Can berra Packard SA, Zürich, Switzerland) with quenching correction.
The CPM value for each duplicate of a concentration of competing compound was averaged (y1), then the % specific binding was calculated according to the equation (((y1−non-specific)/(total binding−non-specific))×100). […] The affinity constant (K) was calculated using the Cheng-Prusoff equation Ki=(IC50/1+([L]/Kd), where [L] is the concentration of radioligand and Kd is the dissociation constant of the radioligand at the receptor as determined by the saturation isotherm.

In assay [3] the target is human D3 receptor (Homo sapiens (Human), UniProt P35462). Kind of assay: Radioligand binding assay, [3H]-spiperone, human D3 receptor. The following applies: membranes of HEK293 EBNA cells expressing human D3; 0.5 nM [3H]-spiperone. As to the method:
as §1, §2

Molecules are shown by their SMILES.

For orientation: Ki means the dissociation constant of the complex between target and ligand, obtained from inhibition or displacement. On to `O=C(N[C@H]1CC[C@H](CCN2CCN(c3nccc4c3CCO4)CC2)CC1)C1CCCOC1` (mixture of isomers) [Example 53, rac-Tetrahydro-pyran-3-carboxylic acid trans-(4-{2-[4-(2,3-dihydro-furo[3,2-c]pyridin-4-yl)-piperazin-1-yl]-ethyl}-cyclohexyl)-amide], for which the Ki was 0.00637 µM in assay [1] and 0.767 µM in assay [2].
As to `O=C(N[C@H]1CC[C@H](CCN2CCN(c3nccc4c3CCO4)CC2)CC1)C1CCCO1` (mixture of isomers) [Example 43, trans-N-(4-{2-[4-(2,3-Dihydrofuro[3,2-c]pyridin-4-yl)-piperazin-1-yl]-ethyl}-cyclohexyl)-rac-tetrahydrofuran-2-carboxamide], the Ki in assay [2] was determined as 1.04 µM; in assay [3] it was 0.12 µM.
In the case of `O=C(N[C@H]1CC[C@H](CCN2CCN(c3nccc4c3CCO4)CC2)CC1)C(O)C(F)(F)F` (mixture of isomers) [Example 112, trans-(RS)—N-(4-{2-[4-(2,3-Dihydro-furo[3,2-c]pyridin-4-yl)-piperazin-1-yl]-ethyl}-cyclohexyl)-3,3,3-trifluoro-2-hydroxy-propionamide], the Ki is 0.0114 µM in assay [1] and 0.843 µM in assay [2].

These data come from patent US8586579B2, “Anellated pyridine compounds” (Hoffmann-La Roche Inc., priority 2010, dated 2013).
